# AlphaSeq binding of Ab-14 heavy chain variants to a spike HR2 peptide

Target peptide (SARS-CoV-2 spike, HR2 region): PDVDLGDISGINAS

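The starting antibody came from a phage panning campaign against this peptide. These sequences belong to a second round, designed from the earlier measurements on random variants of the parent. Group labels follow the data file (Ctrl: baseline library sampled from a position-specific scoring matrix, with some repeated check sequences; Rand: our label for a block that the file lists under HC and that is probably the random mutants of the ten best first-round binders; GP: Gaussian process model; GPLM: also part of the Gaussian process libraries; HC: hill climbing; Gen: genetic algorithm; Gibbs: Gibbs sampling; a sequence that several methods proposed may carry one label only). AlphaSeq pools MATa yeast showing the antibodies with MATalpha yeast showing the peptide. Mating (16 h, 30 °C) was followed by selection of diploids and sequencing of their barcodes. Read counts were normalised to the haploid input and turned into Kd by a linear fit to BCL2-family pairs of known affinity, for each replicate. Each pool was mated in six replicate cultures.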

Ab-14 is the parent antibody, in scFv form: VH, then three GGGGS repeats, then VL. The light chain is unchanged in all variants.
VH: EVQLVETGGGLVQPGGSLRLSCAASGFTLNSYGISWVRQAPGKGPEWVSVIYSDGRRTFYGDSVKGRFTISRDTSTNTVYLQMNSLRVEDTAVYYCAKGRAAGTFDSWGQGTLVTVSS
VL: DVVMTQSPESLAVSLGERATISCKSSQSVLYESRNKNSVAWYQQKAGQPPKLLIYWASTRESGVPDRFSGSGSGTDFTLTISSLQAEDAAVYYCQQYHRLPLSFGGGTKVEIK

Each variant is given by its three heavy chain CDRs, as the data file delimits them; those of the parent are GFTLNSYGIS, VIYSDGRRTFYGDSVK, GRAAGTFDS. Variants here have at most six changes. The Kd shown is the geometric mean over detected replicates; a lower Kd is a better binder. A pair that was not seen in any replicate is written "nd"; this usually means weak binding, but a binder can also be missed. Values of this round are not directly comparable with the first-round values of the same sequences. The authors averaged sequences with at least three values out of six and counted those with two or fewer as poor binders. Background: pairings of all heavy chain designs with three empty control strains gave a value in 1% of cases (median 120 nM, 5th percentile 7.0 nM). Values in that range, when seen in few replicates, are hard to tell from nonspecific mating.

The variant KFTLNSYGIS | RIYSDGRRTFYGDSVK | GRAHGRFDS [Ctrl] gave nd (0 of 6 replicates).
The variant GFWLASYGIS | VIYSDGRRTFYLDSVK | GFSAGTFDS [Ctrl] gave 160 nM (1 of 6 replicates).
The variant KFTLNSYGIS | VIYSDGRRTFYTDSVK | GRAAGTFDS [Ctrl] gave 5.8 nM (6 of 6 replicates).
The variant GFDLNSYGIS | VIYSDGRRTFYSDSVK | GKQAGTFDS [GP_Gen] gave 1.1 nM (6 of 6 replicates).
The variant GFTLNSYGIS | VIYSDGRRTFYGDSVK | GYAAGTFSS [Ctrl] gave nd (0 of 6 replicates).
The variant GFTINSYGIS | VIYSDGRRTFYGDSVK | LRAAGTFDS [Ctrl] gave nd (0 of 6 replicates).
The variant GFTLNDYGIS | VIYSDGRRTFYIDSVK | GRTAGTFDS [GPLM_Gen] gave 3.6 nM (6 of 6 replicates).
The variant GFELNMYGIS | VIYSDGRRTFYGDSVK | GREAGTFDS [GPLM_Gibbs] gave 17 nM (6 of 6 replicates).
The variant GFSLNEYGIS | VIYSDGRRTFYSDSVK | GKAAGTFDS [GPLM_Gen] gave 680 pM (6 of 6 replicates).
The variant GFNLNSYGIS | VIYSDGRRTFYGDQVK | GRQAGTFDS [GP_Gen] gave 7.5 nM (4 of 6 replicates).
The variant EFTLNSYGIS | VIYSDGRRTFYSDSVK | GEAAGTFDS [GPLM_Gen] gave 18 nM (5 of 6 replicates).
The variant GFELNSYGIS | VIYSDGRRTFYGDNVK | GMNAGTFDS [GP_Gibbs] gave 5.2 nM (6 of 6 replicates).
The variant GFSLNRYGIS | VIYSDGRRTFYGDSVK | GQTAGTFDS [GPLM_Gen] gave 20 nM (5 of 6 replicates).
The variant GFDLNSYGIS | VIYSDGRRTFYQDSVK | GKTAGTFDS [GP_Gen] gave 710 pM (6 of 6 replicates).
The variant GFSLNSYGIS | VIYSDGRRTFYGDSVK | GETAGTFDL [GP_Gibbs] gave 610 pM (5 of 6 replicates).
The variant GFGLNSYGIS | VIYSDGRRTFYADSVK | GRTAGTFDS [GPLM_Gen] gave 1.3 nM (6 of 6 replicates).
The variant GFTLNEYGIS | VIYSDGMRTFYGDSVK | GRAAGTFNS [GP_HC] gave nd (0 of 6 replicates).
The variant GFSLNEYGIS | VIYSDGRRTFYGDSVK | GRMAGTFIS [GP_HC] gave nd (0 of 6 replicates).
The variant GFTLNSYGIS | VIYSDGRRTFYHDSVK | GRYALTFDS [Ctrl] gave nd (0 of 6 replicates).
The variant GFQLESYGIS | VIYSDGRRTFYGDSVK | GRLAGTFDL [Ctrl] gave 19 nM (5 of 6 replicates).
The variant GFTLNDYGIS | VIYSDGRRTFYGDSVK | GTAALTFIS [Rand] gave nd (0 of 6 replicates).
The variant GFTLNDYGIS | VIYSDGRRTFYIDSVK | GRAAGQFDS [GPLM_HC] gave nd (0 of 6 replicates).
The variant GFDLNSYGIS | VIYSDGRRTFYGDSVK | GRAAGRFDS [Ctrl] gave nd (0 of 6 replicates).
The variant GFTLNSYGIS | VIYSDGRRTFYGDSVK | GQAAGAFCS [Ctrl] gave nd (0 of 6 replicates).
The variant GFTLNDYGIS | VIYSDGRRTMYGDSVK | GREAGTFDS [GP_HC] gave 2.4 nM (6 of 6 replicates).
The variant GFDLNMYGIS | VIYSDGRRTFYGDSVK | GKAAGTFDS [GPLM_Gen] gave 2.7 nM (6 of 6 replicates).
The variant DFTLNEYGIS | VIYSDGRRTAYGDSVK | GRAAGTFDS [Ctrl] gave 2.3 nM (6 of 6 replicates).
The variant TFQLNSYGIS | VIYSDGRRTFNGDSVK | GQAAGTFDS [Ctrl] gave nd (0 of 6 replicates).
The variant GFTLNSYGIS | VIYADGRRTFYGDSVK | GRLAGTFCI [GP_HC] gave 420 pM (6 of 6 replicates).
The variant GFQLNSYGIS | VIYSDGRRTFYVDSVK | GNAAGTFDS [GP_Gen] gave 140 nM (6 of 6 replicates).
The variant GFELNSYGIS | VIYSDGRRTFYADMVK | GEAAGTFDS [GP_Gen] gave 52 nM (6 of 6 replicates).
The variant GFTLNSYGIS | VIYSDGRRTFYGDDVK | GRAAGTDDS [Ctrl] gave nd (0 of 6 replicates).
The variant GFTLNSYGIS | VIYSDGKRTFYGDSVK | GLEAGTFDT [GP_Gibbs] gave 2.8 nM (6 of 6 replicates).
The variant GHTLESYGIT | VIYSDGRRTFYGDAVK | GRRAGTFDS [Ctrl] gave nd (0 of 6 replicates).
The variant GFWLNDYGIS | VIYADGRRTFYGDSVK | GHAAGTFDS [GP_HC] gave 850 pM (6 of 6 replicates).
The variant GFDLNSYGIS | VIYSDGRRTFYQDSVK | GRLAGTFDS [GPLM_Gibbs] gave 5.2 nM (6 of 6 replicates).
The variant GFTHNSYGIS | VIYSDGRRTYYGDSVK | GRAAGTFDS [Ctrl] gave 46 nM (1 of 6 replicates).
The variant GFSLNTYGIS | VIYSDGRRTFYGDSVK | GQAAGTFDS [GPLM_Gen] gave 53 nM (6 of 6 replicates).

Reference: Li et al. 2023, doi:10.1038/s41467-023-39022-2. File: FLAb, binding data.